These results are taken from patent publication US20120009674A1, “Use of a GSK-3 Inhibitor to Maintain Potency of Cultured Cells” (ABT Holding Company, priority 2005, published 2012).

The subject of assay [1] is Oct-3A. As to conditions: FIG. 4.
Assay [2] has as its system Xenopus embryos. The following applies: developing Xenopus embryos; cited from earlier work.

Molecules are shown by their SMILES.

Turning to `O=C1Nc2cc(Br)ccc2/C1=C1/Nc2ccccc2/C1=N\O` [BIO, 6-bromoindirubin-3′-oxime], the “active amount of functional Oct-3A compared to MAPCs grown without BIO” value in assay [1] amounted to 3 times. Besides, the “activity in developmental assays” value in assay [2] is “mimicked Wnt signaling”.
